Source: patent publication US20200331855A1, “CO-CRYSTAL OF TOCOPHEROL AND PROLINE AND PREPARATION METHOD THEREOF” (priority 2017, published 2020)

How the values were obtained:
[1] = Accelerated test stability (40° C./75% relative humidity), D-α-tocopherol vs co-crystal; type: physicochemical; conditions: Month 3
Experimental: (§1) The content was determined by HPLC, and the content was calculated by the external standard method.

[2] = Long-term test stability (25° C./60% relative humidity); type: physicochemical; conditions: Month 3
Experimental: as §1

content [1]: 96.9%
content [2]: 96.9%
Compound: Cc1c(C)c2c(c(C)c1O)CC[C@@](C)(CCC[C@H](C)CCC[C@H](C)CCCC(C)C)O2 [D-α-tocopherol]
